In the experiment the target is Orexin/Hypocretin receptor type 1 (Homo sapiens, UniProt O43613). Description: Antagonist activity at human OX1R by radioligand displacement assay. The procedure, abridged:
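Radioligand-displacement binding assay at the human orexin receptor; affinity expressed as Ki; data for racemates unless otherwise noted.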
In general terms: Loss of bound radioactivity is the signal in a displacement assay; it reports binding, not function.

Amino acid sequences for entries named in this document (tags omitted).
UniProt O43613, whole entry: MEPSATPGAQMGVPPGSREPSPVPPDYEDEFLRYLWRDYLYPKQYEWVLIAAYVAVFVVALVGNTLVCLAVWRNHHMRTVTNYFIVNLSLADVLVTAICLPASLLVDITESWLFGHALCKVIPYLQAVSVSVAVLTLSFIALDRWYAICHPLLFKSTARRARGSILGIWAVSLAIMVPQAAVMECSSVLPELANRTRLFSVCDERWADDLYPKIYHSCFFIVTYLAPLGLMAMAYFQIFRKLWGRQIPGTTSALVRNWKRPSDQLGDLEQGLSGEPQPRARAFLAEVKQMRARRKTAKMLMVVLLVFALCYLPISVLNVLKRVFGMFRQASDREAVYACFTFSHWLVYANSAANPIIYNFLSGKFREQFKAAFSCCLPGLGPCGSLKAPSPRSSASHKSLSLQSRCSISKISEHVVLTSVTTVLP

As usually defined, the Ki is the dissociation constant of the complex between target and ligand, obtained from inhibition or displacement. High values mean weaker binding, low ones tighter binding. Turning to `C[C@@H]1CC[C@@H](Oc2nccc3ccccc23)CN1C(=O)c1ccccc1-n1nccn1` (relative stereo), affinity was put at a Ki of 10.5 nM.

(Values after ChEMBL document CHEMBL3393034, “Discovery of piperidine ethers as selective orexin receptor antagonists (SORAs) inspired by filorexant” (Bioorg Med Chem Lett, 2015).)
